{"sequences": {"note": "The chains behind the UniProt entries cited, without tags or fusion partners.", "UniProt P43351, whole entry": "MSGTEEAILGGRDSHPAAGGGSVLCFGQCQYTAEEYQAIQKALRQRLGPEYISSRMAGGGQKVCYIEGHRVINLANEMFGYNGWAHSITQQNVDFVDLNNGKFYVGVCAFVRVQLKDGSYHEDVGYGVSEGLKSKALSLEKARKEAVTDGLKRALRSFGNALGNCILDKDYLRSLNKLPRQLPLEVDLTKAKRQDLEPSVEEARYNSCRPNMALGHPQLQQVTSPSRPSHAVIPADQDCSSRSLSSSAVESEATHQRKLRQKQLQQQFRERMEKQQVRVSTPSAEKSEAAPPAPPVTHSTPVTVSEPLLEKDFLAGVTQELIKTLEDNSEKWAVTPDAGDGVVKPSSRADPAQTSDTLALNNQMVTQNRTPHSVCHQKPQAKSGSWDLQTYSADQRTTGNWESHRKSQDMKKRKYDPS"}, "source": "PubChem BioAssay AID651710", "about": "(Broad Institute, 2012)", "note": "This is a selection; strong and weak results do not stand in their true shares. Some structures show a salt or complex split into parts, the way the source records it. Active and inactive are the calls of the source.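 The calls were made as follows: active = every replicate showing at least 50% inhibition; inconclusive = mean inhibition at least 50% but not in every replicate; inactive = the rest.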", "data": [{"target": "DNA repair protein RAD52 homolog (Homo sapiens) (UniProt P43351)", "assay": "RAD52 DNA annealing inhibitors, primary screen, biochemical, FRET, single point, set 2 (AID 651710)", "details": "recombinant RAD52 DNA annealing, FRET fluorescence; at 18.7 µM; stronger effect = higher value", "values": [{"smiles": "O=[N+]([O-])c1cc([N+](=O)[O-])c(OC2CCCCC2O)c([N+](=O)[O-])c1", "note": "(stereo not drawn)", "inhibition": "inactive: -14.3%"}, {"smiles": "CCCCCOc1ccc(NP(C)(=O)Oc2ccc(Cl)cc2Cl)cc1", "note": "(stereo not drawn)", "inhibition": "inactive: -21.9%"}, {"smiles": "Cc1c([N+](=O)[O-])cc([N+](=O)[O-])c(Br)c1[N+](=O)[O-]", "inhibition": "inactive: -11.5%"}, {"smiles": "COc1ccc(OP(C)(=O)Nc2ccc(SC(F)(F)F)cc2)cc1", "note": "(stereo not drawn)", "inhibition": "inactive: -11.4%"}, {"smiles": "CCN(CC)CCCNc1ccccc1[N+](=O)[O-].O=[N+]([O-])c1cc([N+](=O)[O-])c(O)c([N+](=O)[O-])c1", "inhibition": "inactive: -16.9%"}, {"smiles": "COc1ccc2c(c1O)-c1c(O)c(OC)cc3c1[C@H](C2)[N+](C)(C)CC3.O=[N+]([O-])c1cc([N+](=O)[O-])c([O-])c([N+](=O)[O-])c1[O-]", "inhibition": "inactive: 2.37%"}, {"smiles": "O=C(OC1CN2CCC1CC2)c1ccc([N+](=O)[O-])cc1", "note": "(stereo not drawn)", "inhibition": "inactive: 20.8%"}, {"smiles": "O=C(OCCN1CCN(CCOCc2ccccc2)CC1)C(O)(c1ccccc1)c1ccccc1", "inhibition": "inactive: -7.37%"}, {"smiles": "CP(=O)(Nc1ccccc1F)Oc1ccccc1", "note": "(stereo not drawn)", "inhibition": "inactive: -10.4%"}, {"smiles": "CC(C)c1ccc(OP(C)(=O)Nc2ccc(SC(F)(F)F)cc2)cc1", "note": "(stereo not drawn)", "inhibition": "inactive: -8.51%"}, {"smiles": "O=[N+]([O-])c1cc([N+](=O)[O-])c(Nc2ccc(Cl)cc2)c([N+](=O)[O-])c1", "inhibition": "inactive: -2.45%"}, {"smiles": "O=[N+]([O-])c1cc([N+](=O)[O-])c(C(F)(F)F)c([N+](=O)[O-])c1O", "inhibition": "inactive: -9.62%"}, {"smiles": "CCOP(=O)(CC)OCC", "inhibition": "inactive: -7.88%"}, {"smiles": "CP(=O)(Nc1ccc(SC(F)(F)F)cc1)Oc1ccc(F)cc1", "note": "(stereo not drawn)", "inhibition": "inactive: -4.62%"}, {"smiles": "Cc1c(C(c2ccc3c(c2)OCO3)c2c(C)n(C)n(-c3ccccc3)c2=O)c(=O)n(-c2ccccc2)n1C.O=[N+]([O-])c1cc([N+](=O)[O-])c(O)c([N+](=O)[O-])c1", "inhibition": "inactive: -0.187%"}, {"smiles": "O=[N+]([O-])c1ccc(OP2(=O)COCCO2)cc1", "note": "(stereo not drawn)", "inhibition": "inactive: -6.59%"}, {"smiles": "O=[N+]([O-])c1cc([N+](=O)[O-])c(NCC2CCS(=O)(=O)C2)c([N+](=O)[O-])c1", "note": "(stereo not drawn)", "inhibition": "inactive: 2.05%"}, {"smiles": "Cc1cc(-c2cccc3ccccc23)c(C)cn1.O=[N+]([O-])c1cc([N+](=O)[O-])c(O)c([N+](=O)[O-])c1", "inhibition": "inactive: -12.9%"}, {"smiles": "COc1ccc(NP(C)(=O)Oc2ccccc2OC)cc1", "note": "(stereo not drawn)", "inhibition": "inactive: -13.1%"}, {"smiles": "CCOC(=O)c1ccc(NP(C)(=O)Oc2ccc(Cl)cc2)cc1", "note": "(stereo not drawn)", "inhibition": "inactive: 1.81%"}, {"smiles": "Nc1ccc2c(ccc3cccnc32)n1.O=[N+]([O-])c1cc([N+](=O)[O-])c(O)c([N+](=O)[O-])c1", "inhibition": "inactive: -1.63%"}, {"smiles": "CN(C)C(=O)c1c([N+](=O)[O-])cc([N+](=O)[O-])cc1[N+](=O)[O-]", "inhibition": "inactive: -8.46%"}, {"smiles": "COc1ccccc1OP(C)(=O)Nc1ccccc1Br", "note": "(stereo not drawn)", "inhibition": "inactive: -1.59%"}, {"smiles": "O=C(OCCCN1CCCC1)C(O)(c1ccccc1)C1CCCCC1", "note": "(stereo not drawn)", "inhibition": "inactive: -15.7%"}, {"smiles": "CCc1ccc(OP(C)(=O)Nc2cccnc2)cc1", "note": "(stereo not drawn)", "inhibition": "inactive: -9.91%"}, {"smiles": "O=[N+]([O-])c1cc([N+](=O)[O-])c(Nc2ccccn2)c([N+](=O)[O-])c1", "inhibition": "inactive: -0.997%"}, {"smiles": "COc1ccccc1OP(C)(=O)Nc1ccc(Br)cc1", "note": "(stereo not drawn)", "inhibition": "inactive: -1.33%"}, {"smiles": "CP(=O)(OCCOc1ccccc1)OCCOc1ccccc1", "inhibition": "inactive: -6.8%"}, {"smiles": "CP(=O)(Nc1ccc(Cl)cc1Cl)Oc1ccccc1", "note": "(stereo not drawn)", "inhibition": "inactive: -2.68%"}, {"smiles": "CCCCCCCCCCCCCCCC1C[N+](C)(C)CCOP(C)(=O)O1", "note": "(stereo not drawn)", "inhibition": "active: 81.9%"}, {"smiles": "Cc1cc(C)cc(OP(C)(=O)Nc2cccc(C(F)(F)F)c2)c1", "note": "(stereo not drawn)", "inhibition": "inactive: 2.11%"}, {"smiles": "O=C1C(O)=C([N+](=O)[O-])C(=O)C(O)=C1[N+](=O)[O-]", "inhibition": "inactive: -13.1%"}, {"smiles": "Cc1cc(C)cc(OP(C)(N)=O)c1", "note": "(stereo not drawn)", "inhibition": "inactive: 1.07%"}, {"smiles": "COc1ccccc1OP(C)(=O)Nc1cc(Cl)ccc1C", "note": "(stereo not drawn)", "inhibition": "inactive: -22%"}, {"smiles": "O=[N+]([O-])c1ccc2c(c1)C=Nc1ccccc1O2", "inhibition": "inactive: -14.1%"}, {"smiles": "Cc1cccc(C)c1OP(C)(N)=O", "note": "(stereo not drawn)", "inhibition": "inactive: -15%"}, {"smiles": "CC(C)(C)c1ccc(OP(C)(=O)Nc2ccc(SC(F)(F)F)cc2)cc1", "note": "(stereo not drawn)", "inhibition": "inactive: -7.01%"}, {"smiles": "O=[N+]([O-])c1cc([N+](=O)[O-])c(Nc2cccnc2)c([N+](=O)[O-])c1", "inhibition": "inactive: -9.43%"}, {"smiles": "COc1ccccc1-c1ccccn1.O=[N+]([O-])c1cc([N+](=O)[O-])c(O)c([N+](=O)[O-])c1", "inhibition": "inactive: -16.5%"}, {"smiles": "CCN(CC)CCCOC(=O)C(O)(c1ccccc1)c1ccccc1", "inhibition": "inactive: 8.43%"}, {"smiles": "CP(=O)(Nc1ccccn1)Oc1ccc(Cl)cc1", "note": "(stereo not drawn)", "inhibition": "inactive: -10.9%"}, {"smiles": "CCOC(=O)c1ccc(NP(C)(=O)Oc2ccc(OC)cc2)cc1", "note": "(stereo not drawn)", "inhibition": "inactive: -13.4%"}, {"smiles": "O=[N+]([O-])c1cc([N+](=O)[O-])c(O)c([N+](=O)[O-])c1.c1ccc(Oc2ccncc2)cc1", "inhibition": "inactive: -8.91%"}, {"smiles": "CCc1ccc(OP(C)(=O)N2CCN(c3ccc([N+](=O)[O-])cc3)CC2)cc1", "note": "(stereo not drawn)", "inhibition": "inactive: -8.64%"}, {"smiles": "CP(=O)(NC(=O)Nc1ccccc1)Oc1ccccc1", "note": "(stereo not drawn)", "inhibition": "inactive: -10.5%"}, {"smiles": "CP(=O)(Oc1ccccc1)OC(c1ccccc1)C(F)(F)F", "note": "(stereo not drawn)", "inhibition": "inactive: -0.657%"}, {"smiles": "CP(=O)(Nc1ccc(SC(F)(F)F)cc1)Oc1ccc(Cl)cc1", "note": "(stereo not drawn)", "inhibition": "inactive: -4.8%"}, {"smiles": "CP(=O)(Nc1ccccc1Br)Oc1ccccc1", "note": "(stereo not drawn)", "inhibition": "inactive: -12.4%"}, {"smiles": "COc1ccccc1OP(C)(=O)Nc1ccccc1", "note": "(stereo not drawn)", "inhibition": "inactive: -5.96%"}, {"smiles": "COc1ccc(-c2ccccn2)cc1.O=[N+]([O-])c1cc([N+](=O)[O-])c(O)c([N+](=O)[O-])c1", "inhibition": "inactive: -11.7%"}, {"smiles": "CCCOc1ccc(NP(C)(=O)Oc2ccc(Cl)cc2)cc1", "note": "(stereo not drawn)", "inhibition": "inactive: -14%"}, {"smiles": "CN1CCCCC1COC(=O)C1(O)c2ccccc2CCc2ccccc21", "note": "(stereo not drawn)", "inhibition": "inactive: -14.2%"}, {"smiles": "CCOC(=O)C(CC)C1=NC(C)(C)Cc2ccccc21.O=[N+]([O-])c1cc([N+](=O)[O-])c(O)c([N+](=O)[O-])c1", "note": "(stereo not drawn)", "inhibition": "inactive: -17.1%"}, {"smiles": "O=[N+]([O-])c1cc([N+](=O)[O-])c(Nc2nnnn2CCO)c([N+](=O)[O-])c1", "inhibition": "inactive: -0.477%"}, {"smiles": "O=[N+]([O-])c1cc([N+](=O)[O-])c(-c2cnn(-c3ccccc3)c2)c([N+](=O)[O-])c1", "inhibition": "inactive: -6.14%"}, {"smiles": "CN(Cc1cccnc1)C(=O)COc1ccc(Cl)c(Cl)c1.O=[N+]([O-])c1cc([N+](=O)[O-])c(O)c([N+](=O)[O-])c1", "inhibition": "inactive: -18.8%"}, {"smiles": "O=[N+]([O-])c1cc([N+](=O)[O-])c(-n2nnc3ccccc32)c([N+](=O)[O-])c1", "inhibition": "inactive: -24.4%"}, {"smiles": "CP(=O)(Nc1cccc(Br)c1)Oc1ccccc1", "note": "(stereo not drawn)", "inhibition": "inactive: -13.4%"}, {"smiles": "Cc1cc(C)cc(OP(C)(=O)Nc2ccccn2)c1", "note": "(stereo not drawn)", "inhibition": "inactive: -9.22%"}, {"smiles": "CCOC(=O)c1ccc(NP(C)(=O)Oc2cc(C)cc(C)c2)cc1", "note": "(stereo not drawn)", "inhibition": "inactive: -5.22%"}, {"smiles": "Cc1cc(C)cc(OP(C)(=O)Nc2ccc(C)cc2C)c1", "note": "(stereo not drawn)", "inhibition": "inactive: -2.26%"}, {"smiles": "COc1ccccc1OP(C)(=O)Nc1cccc(Br)c1", "note": "(stereo not drawn)", "inhibition": "inactive: -4.62%"}, {"smiles": "O=C(O)c1cccc(Nc2c([N+](=O)[O-])cc([N+](=O)[O-])cc2[N+](=O)[O-])c1", "inhibition": "inactive: -7.18%"}]}]}
